How the values were obtained:
5-HT6 receptor = 5-HT6 receptor (Homo sapiens, UniProt P50406); experiment: CHO-human-5HT6-Aequorin functional assay (ago-/antagonism); details: test concentration not given; for % inhibition of control agonist response: agonist effect, CHO-human-5HT6-Aequorin cells; for % inhibition of control antagonist response: antagonist effect vs 10^-6 M α-methylserotonin induced luminescence
5-HT7 receptor = 5-HT7 receptor (Homo sapiens, UniProt P34969); experiment: Radioligand binding, 5-HT7 ([3H]-5-CT displacement)
D3 receptors = D3 receptors (Homo sapiens, UniProt P35462); experiment: biochemical; details: read-out: % inhibition of control binding at 10^−6M, D3
H1 receptors = H1 receptors (Homo sapiens, UniProt P35367); experiment: biochemical; details: read-out: % inhibition of control binding at 10^−6M, H1
M1 receptors = M1 receptors (Homo sapiens, UniProt P11229); experiment: biochemical; details: read-out: % inhibition of control binding at 10^−6M, M1
5-HT2C receptors = 5-HT2C receptors (Homo sapiens, UniProt P28335); experiment: biochemical; details: read-out: % inhibition of control binding at 10^−6M, 5-HT2C

The chains behind the UniProt entries cited, without tags or fusion partners. Where a name states a change or a piece, a line headed by the entry shows the natural chain unless it says otherwise. Residues count along the entry.
UniProt P50406, whole entry: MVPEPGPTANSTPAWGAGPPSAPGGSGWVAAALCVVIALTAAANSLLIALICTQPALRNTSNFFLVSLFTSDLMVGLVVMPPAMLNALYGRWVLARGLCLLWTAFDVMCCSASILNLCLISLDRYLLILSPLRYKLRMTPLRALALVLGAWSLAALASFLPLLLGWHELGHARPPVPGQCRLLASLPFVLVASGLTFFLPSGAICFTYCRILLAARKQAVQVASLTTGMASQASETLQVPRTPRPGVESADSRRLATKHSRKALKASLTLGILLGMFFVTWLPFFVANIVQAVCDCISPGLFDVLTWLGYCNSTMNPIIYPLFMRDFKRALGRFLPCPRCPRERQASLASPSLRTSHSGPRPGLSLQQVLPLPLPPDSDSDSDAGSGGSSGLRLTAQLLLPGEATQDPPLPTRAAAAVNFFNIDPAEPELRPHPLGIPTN
UniProt P34969, 1-432 limits assumed: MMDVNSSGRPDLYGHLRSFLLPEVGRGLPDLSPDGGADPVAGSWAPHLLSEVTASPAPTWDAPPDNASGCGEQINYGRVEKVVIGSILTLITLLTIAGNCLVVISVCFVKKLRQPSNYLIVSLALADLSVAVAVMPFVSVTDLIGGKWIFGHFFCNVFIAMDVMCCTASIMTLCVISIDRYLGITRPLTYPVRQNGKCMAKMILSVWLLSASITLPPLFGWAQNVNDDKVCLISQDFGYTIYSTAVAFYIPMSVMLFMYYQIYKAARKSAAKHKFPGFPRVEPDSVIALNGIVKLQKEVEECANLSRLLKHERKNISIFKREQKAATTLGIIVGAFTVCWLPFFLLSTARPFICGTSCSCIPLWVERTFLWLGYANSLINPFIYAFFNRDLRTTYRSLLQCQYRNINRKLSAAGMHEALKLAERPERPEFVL
UniProt P35462, whole entry: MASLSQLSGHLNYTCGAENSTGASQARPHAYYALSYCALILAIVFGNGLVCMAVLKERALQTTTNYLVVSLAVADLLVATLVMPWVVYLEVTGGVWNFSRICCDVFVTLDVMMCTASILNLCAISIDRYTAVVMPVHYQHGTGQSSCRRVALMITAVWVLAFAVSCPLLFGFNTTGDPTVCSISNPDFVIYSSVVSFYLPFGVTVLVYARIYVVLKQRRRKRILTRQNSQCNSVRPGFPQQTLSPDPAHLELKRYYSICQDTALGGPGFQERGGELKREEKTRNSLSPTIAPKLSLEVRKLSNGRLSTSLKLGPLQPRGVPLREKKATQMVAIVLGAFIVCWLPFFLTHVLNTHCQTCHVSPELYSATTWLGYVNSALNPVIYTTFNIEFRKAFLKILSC
UniProt P35367, whole entry: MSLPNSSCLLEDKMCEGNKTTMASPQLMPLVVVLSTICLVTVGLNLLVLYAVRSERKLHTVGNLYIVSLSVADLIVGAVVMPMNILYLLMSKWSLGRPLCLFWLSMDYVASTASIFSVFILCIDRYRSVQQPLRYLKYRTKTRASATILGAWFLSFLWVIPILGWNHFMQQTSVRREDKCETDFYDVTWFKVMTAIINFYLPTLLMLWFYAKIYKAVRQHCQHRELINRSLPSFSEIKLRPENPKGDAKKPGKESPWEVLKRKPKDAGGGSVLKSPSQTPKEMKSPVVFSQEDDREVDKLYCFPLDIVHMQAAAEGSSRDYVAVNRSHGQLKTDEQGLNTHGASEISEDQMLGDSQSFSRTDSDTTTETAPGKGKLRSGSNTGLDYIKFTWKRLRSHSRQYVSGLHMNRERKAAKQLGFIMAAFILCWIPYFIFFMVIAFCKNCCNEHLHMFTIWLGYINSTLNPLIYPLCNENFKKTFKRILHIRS
UniProt P11229: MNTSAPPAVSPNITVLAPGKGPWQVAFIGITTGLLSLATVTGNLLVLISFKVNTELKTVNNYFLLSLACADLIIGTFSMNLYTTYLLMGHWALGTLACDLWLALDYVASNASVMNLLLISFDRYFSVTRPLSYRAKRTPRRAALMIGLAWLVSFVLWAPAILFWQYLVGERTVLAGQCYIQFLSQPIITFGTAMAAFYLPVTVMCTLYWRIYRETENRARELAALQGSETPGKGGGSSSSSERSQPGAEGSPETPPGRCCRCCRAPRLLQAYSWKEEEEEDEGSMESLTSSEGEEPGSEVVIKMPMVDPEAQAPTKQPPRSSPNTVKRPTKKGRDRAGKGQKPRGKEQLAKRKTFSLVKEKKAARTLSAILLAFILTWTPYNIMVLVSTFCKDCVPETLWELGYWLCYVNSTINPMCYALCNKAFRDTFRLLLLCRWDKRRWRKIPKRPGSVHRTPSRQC
UniProt P28335, 33-458: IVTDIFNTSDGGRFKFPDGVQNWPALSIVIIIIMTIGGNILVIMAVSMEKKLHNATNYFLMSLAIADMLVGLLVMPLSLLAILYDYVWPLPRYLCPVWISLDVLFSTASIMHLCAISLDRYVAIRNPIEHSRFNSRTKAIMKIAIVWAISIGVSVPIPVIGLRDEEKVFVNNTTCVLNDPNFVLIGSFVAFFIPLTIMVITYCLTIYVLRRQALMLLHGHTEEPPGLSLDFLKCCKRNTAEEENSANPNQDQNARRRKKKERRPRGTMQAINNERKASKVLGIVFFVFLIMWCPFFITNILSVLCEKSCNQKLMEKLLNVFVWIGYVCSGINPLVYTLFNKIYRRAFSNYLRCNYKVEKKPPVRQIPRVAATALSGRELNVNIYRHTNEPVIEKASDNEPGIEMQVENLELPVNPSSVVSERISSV

| SMILES | % inhibition of control agonist response (5-HT6 receptor) [%] | % inhibition of control antagonist response (5-HT6 receptor) [%] | Ki (5-HT7 receptor) [nM] | inhibition at 1 µM (D3 receptors) [%] | inhibition at 1 µM (H1 receptors) [%] | inhibition at 1 µM (M1 receptors) [%] | inhibition at 1 µM (5-HT2C receptors) [%] |
| --- | --- | --- | --- | --- | --- | --- | --- |
| O=S(=O)(c1cccc(Cl)c1)n1ccc2c(NC3CCNC3)nc3ccccc3c21 (centres unmarked) [Compound 5, 1-((3-chlorophenyl)sulfonyl)-N-(pyrrolidin-3-yl)-1H-pyrrolo[3,2-c]quinolin-4-amine] | −2.0 | 93.7 |  |  |  |  |  |
| O=S(=O)(c1cccc(F)c1)n1ccc2c(N3CCNCC3)nc3ccccc3c21 [Compound 30, 1-((3-fluorophenyl)sulfonyl)-4-(piperazin-1-yl)-1H-pyrrolo[3,2-c]quinoline] |  |  | 2800 | 57 | 41 | 15 | 11 |
| O=S(=O)(c1cccc(Cl)c1)n1ccc2c(N[C@H]3CCNC3)nc3ccccc3c21 [Compound 6, (S)-1-((3-chlorophenyl)sulfonyl)-N-(pyrrolidin-3-yl)-1H-pyrrolo[3,2-c]quinolin-4-amine] | 13.6 | 92.5 |  |  |  |  |  |
| O=S(=O)(c1cccc(Cl)c1)n1ccc2c(N[C@@H]3CCNC3)nc3ccccc3c21 [Compound 7, (R)-1-((3-chlorophenyl)sulfonyl)-N-(pyrrolidin-3-yl)-1H-pyrrolo[3,2-c]quinolin-4-amine] | 0.8 | 85.9 |  |  |  |  |  |
